Target: T1, inducible NO-synthase (NO-synthase 2) (Homo sapiens, UniProt P35228)
T1 construct: positive control (induction of the enzyme): mixtures of γ-interferon (1 000 U/ml) and interleukin-1β (100 U/ml); endogenous in cells
Experiment: Activity on inducible NO-synthase: decrease in nitrate and nitrite concentration after stimulation of NO-synthase 2 (test of Heck et al.)
Type: cell-based
Conditions: control compound at 200 μM, nitrites and nitrates measured
Protocol: The activity of lipochroman-6 on inducible NO-synthase was evaluated in the test described by Heck et al. (J. B. C., Vol. 267, No. 30, 21277–21280, Oct. 25, 1992).
In order to determine the activity of the product to be tested, the amount of stable NO reaction products (nitrites and nitrates) is measured using the nitric calorimetric assay kit sold by the company Boehringer under the reference 1756.28.
The lipochroman-6 was tested at the concentrations of 0.005% and 0.01% (weight/volume) in ethanol.

The chains behind the UniProt entries cited, without tags or fusion partners.
UniProt P35228, whole entry, species assumed: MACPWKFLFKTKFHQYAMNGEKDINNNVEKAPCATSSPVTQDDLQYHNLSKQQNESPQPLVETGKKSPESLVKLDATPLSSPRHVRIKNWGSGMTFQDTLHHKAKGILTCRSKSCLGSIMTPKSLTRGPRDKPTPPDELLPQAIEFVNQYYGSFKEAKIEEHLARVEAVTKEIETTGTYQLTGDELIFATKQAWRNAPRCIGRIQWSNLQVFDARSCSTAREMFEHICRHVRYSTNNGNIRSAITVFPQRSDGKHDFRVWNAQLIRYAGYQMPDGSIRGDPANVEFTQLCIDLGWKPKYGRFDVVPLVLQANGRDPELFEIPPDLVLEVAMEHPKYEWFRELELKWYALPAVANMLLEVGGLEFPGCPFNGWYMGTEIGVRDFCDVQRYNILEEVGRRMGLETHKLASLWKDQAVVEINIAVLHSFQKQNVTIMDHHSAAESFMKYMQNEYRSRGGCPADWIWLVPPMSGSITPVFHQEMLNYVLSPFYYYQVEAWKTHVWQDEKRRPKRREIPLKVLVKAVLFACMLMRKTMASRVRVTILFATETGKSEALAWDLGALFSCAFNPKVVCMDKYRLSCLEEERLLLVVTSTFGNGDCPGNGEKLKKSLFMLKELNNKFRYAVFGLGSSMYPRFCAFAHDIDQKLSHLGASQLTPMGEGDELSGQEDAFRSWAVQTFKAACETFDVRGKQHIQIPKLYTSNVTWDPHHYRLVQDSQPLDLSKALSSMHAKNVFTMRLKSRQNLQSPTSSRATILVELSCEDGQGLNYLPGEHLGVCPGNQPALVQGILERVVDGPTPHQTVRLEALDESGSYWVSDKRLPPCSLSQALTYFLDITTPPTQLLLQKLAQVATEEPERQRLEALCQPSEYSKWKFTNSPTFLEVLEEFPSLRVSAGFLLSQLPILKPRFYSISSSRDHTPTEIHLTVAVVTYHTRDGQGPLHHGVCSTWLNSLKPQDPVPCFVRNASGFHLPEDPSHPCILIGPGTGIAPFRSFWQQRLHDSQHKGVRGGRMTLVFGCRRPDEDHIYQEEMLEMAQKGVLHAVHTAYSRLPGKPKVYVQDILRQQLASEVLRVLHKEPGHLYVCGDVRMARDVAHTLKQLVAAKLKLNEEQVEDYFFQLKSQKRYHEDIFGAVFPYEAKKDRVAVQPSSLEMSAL

Compound | % inhibition
CNC(=N)NCCC[C@H](N)C(=O)O [B, N^G-monomethyl-L-arginine (L form), reference compound] | 100%
CNC(=N)NCCC[C@H](N)C(=O)O [C, N^G-monomethyl-L-arginine (D form), reference compound] | 0%
